Laboratory results: BindingDB's records for doi:10.1073/pnas.90.8.3452 (The Scripps Research Institute, 1993)

By UniProt entry, the sequences of proteins in these tests, tags left out.
UniProt P35365, whole entry: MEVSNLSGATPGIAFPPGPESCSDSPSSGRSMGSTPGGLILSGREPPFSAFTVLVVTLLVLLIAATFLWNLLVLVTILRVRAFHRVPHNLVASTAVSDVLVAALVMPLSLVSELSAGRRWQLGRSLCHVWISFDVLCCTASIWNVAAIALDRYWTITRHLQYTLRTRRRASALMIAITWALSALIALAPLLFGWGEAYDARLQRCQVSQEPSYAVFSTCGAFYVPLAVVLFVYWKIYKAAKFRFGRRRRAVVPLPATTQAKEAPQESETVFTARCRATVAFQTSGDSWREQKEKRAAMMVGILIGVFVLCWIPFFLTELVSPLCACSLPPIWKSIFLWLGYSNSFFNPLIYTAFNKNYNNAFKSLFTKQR
UniProt P35364, whole entry: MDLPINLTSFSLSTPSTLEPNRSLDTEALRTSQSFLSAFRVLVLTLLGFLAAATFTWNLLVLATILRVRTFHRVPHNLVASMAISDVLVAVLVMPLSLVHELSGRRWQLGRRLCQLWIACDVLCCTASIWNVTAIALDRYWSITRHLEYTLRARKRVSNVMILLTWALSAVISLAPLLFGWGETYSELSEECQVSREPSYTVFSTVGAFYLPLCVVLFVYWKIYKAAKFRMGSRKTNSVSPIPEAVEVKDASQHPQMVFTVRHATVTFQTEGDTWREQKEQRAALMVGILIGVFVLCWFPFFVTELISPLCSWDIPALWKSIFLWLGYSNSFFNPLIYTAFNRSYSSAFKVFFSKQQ

Assays:
[1] = biological target: 5-hydroxytryptamine receptor 5B (Rattus norvegicus, UniProt P35365)
[2] = biological target: 5-hydroxytryptamine receptor 5A (Rattus norvegicus, UniProt P35364)

SMILES	Ki [1]	Ki [2]
NCCc1c[nH]c2ccc(O)cc12 [[3H]-5-HT]	0.239 µM	
CN1C[C@H](C(=O)N[C@]2(C)O[C@@]3(O)[C@@H]4CCCN4C(=O)[C@H](Cc4ccccc4)N3C2=O)C=C2c3cccc4[nH]cc(c34)C[C@H]21 [12'-hydroxy-2'-methyl-5'alpha-(phenylmethyl)ergotaman-3',6',18-trione]		0.0157 µM
